The source of these data is ChEMBL document CHEMBL4340514, “(2S)-N-2-methoxy-2-phenylethyl-6,7-benzomorphan compound (2S-LP2): Discovery of a biased mu/delta opioid receptor agonist” (Eur J Med Chem, 2019).

Sequences of proteins named here, by UniProt entry; tags and fusion partners are left off.
UniProt P35372, whole entry: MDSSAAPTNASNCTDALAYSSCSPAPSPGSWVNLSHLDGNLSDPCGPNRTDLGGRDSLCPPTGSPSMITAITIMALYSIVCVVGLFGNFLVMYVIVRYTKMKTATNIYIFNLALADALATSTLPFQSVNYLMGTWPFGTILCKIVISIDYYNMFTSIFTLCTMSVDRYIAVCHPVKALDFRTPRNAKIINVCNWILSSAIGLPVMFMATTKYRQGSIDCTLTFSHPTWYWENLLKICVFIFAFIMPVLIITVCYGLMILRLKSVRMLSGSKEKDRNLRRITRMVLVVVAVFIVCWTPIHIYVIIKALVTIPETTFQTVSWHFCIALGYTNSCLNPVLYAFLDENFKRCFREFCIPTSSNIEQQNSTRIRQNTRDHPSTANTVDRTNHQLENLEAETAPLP

Assay [1] concerns the target T1, Mu-type opioid receptor (Homo sapiens, UniProt P35372).
Assay [2] concerns the target T1, Mu-type opioid receptor. This is another data set of the same source.

One may read the EC50 as the concentration giving half of the maximal effect. With `CC(C)C[C@@H](NC(=O)[C@H](Cc1ccccc1)NC(=O)CNC(=O)[C@@H](C)NC(=O)[C@@H](N)Cc1ccc(O)cc1)C(=O)O` [DADLE], the EC50 at Mu-type opioid receptor [1] was 129 nM; at Mu-type opioid receptor [2], 1380 nM.
